# According to PMC1403760 (BMC Pharmacology, 2006):
# The chains behind the UniProt entries cited, without tags or fusion partners. Where a name states a change or a piece, a line headed by the entry shows the natural chain unless it says otherwise.
# UniProt P33534: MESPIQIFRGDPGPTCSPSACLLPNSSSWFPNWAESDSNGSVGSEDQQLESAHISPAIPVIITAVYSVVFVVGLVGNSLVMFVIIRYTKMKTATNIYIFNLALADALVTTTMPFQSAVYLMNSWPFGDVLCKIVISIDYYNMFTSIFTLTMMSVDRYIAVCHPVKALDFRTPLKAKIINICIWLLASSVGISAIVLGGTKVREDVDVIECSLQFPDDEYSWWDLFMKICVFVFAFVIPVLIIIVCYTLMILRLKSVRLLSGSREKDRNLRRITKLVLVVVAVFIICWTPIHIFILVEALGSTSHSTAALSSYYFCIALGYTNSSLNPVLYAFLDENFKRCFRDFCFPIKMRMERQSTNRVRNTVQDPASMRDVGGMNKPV
# Read-outs that look alike come from different tables or passages of the source.
# Legend:
# mouse κ-opioid receptor [1] = molecular target: T1, mouse κ-opioid receptor (Mus musculus, UniProt P33534); test: cell-based
# mouse κ-opioid receptor [2] = molecular target: T1, mouse κ-opioid receptor; test: biochemical; format: binding; parameters: expressed in transfected cells
# mouse κ-opioid receptor [3] = molecular target: T1, mouse κ-opioid receptor
SMILES,EC50 (mouse κ-opioid receptor [1]) [nM],Ki (mouse κ-opioid receptor [2]) [nM],"inhibition at 5 µM (mouse κ-opioid receptor [1]; HEK293, read-out: % Max Inhibition (Mean +/- SEM)) [%]",EC50 ± SEM (mouse κ-opioid receptor [3]),EC50 (mouse κ-opioid receptor [3]; read-out: EC50 ± SEM) [nM],"Ki (mouse κ-opioid receptor [2]; pH 7.4, read-out: HEK-κ Ki) [nM]"
Oc1ccc2c(c1)[C@@]13CCCC[C@@]1(O)[C@@H](C2)N(CC1CCC1)CC3 [Butorphanol],57 ± 47,2.5 ± 0.8,–,–,–,–
C[C@H]1[C@H]2Cc3ccc(O)cc3[C@]1(C)CCN2CC1CC1 [Cyclazocine],2 ± 2,0.1,39 ± 5,–,–,–
C[C@@]12CCCCC[C@@H](Cc3ccc(O)cc31)[C@@H]2N [Dezocine],–,24.5 ± 1.5,–,Antagonist,–,–
C=CCN1CC[C@]23c4c5ccc(O)c4O[C@H]2[C@@H](O)C=C[C@H]3[C@H]1C5 [Nalorphine],483 ± 245,1.6 ± 0.1,–,–,–,–
C=CCN1CCC2(C)c3cc(O)ccc3CC1C2C (stereo not shown) [SKF 10047],24 ± 6,0.4 ± 0.2,–,–,–,–
C=C1C[C@H](C)[C@H]2[C@H]3Cc4ccc(O)cc4[C@@]2(CCN3CC2CCC2)C1 [Xorphanol],–,–,–,–,3.3 ± 2,0.4 ± 0.2
